From patent publication US20110046227A1, “METHODS FOR CONCOMITANT ADMINISTRATION OF […] A SECOND ACTIVE AGENT” (MUTUAL PHARMACEUTICAL COMPANY, INC., priority 2009, published 2011) come the findings set out here.

The nature of this data set: Pharmacokinetic study in healthy adults of single vs. multiple oral doses of colchicine tablets (Example 1).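 Also: Single-dose and multiple-dose periods given to the same subjects, with a 14-day washout between the two periods.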 The data set is classed as in vivo, human. Particulars: multiple (b.i.d.) oral doses colchicine 0.6 mg for 10 days, Day 25, healthy adults N=13, plasma.

Turning to `COc1cc2c(c(OC)c1OC)-c1ccc(OC)c(=O)cc1[C@@H](NC(C)=O)CC2` [Colchicine, (−)-N-[(7S,12aS)-1,2,3,10-tetramethoxy-9-oxo-5,6,7,9-tetrahydrobenzo[a]heptalen-7-yl]-acetamide], the “Cmin, MEAN” value was 0.90651 ng/mL.
